Screening results deposited in PubChem BioAssay by Broad Institute.
Only some compounds are listed: those with a hit (about 1.7% of all), similar ones and a draw of the others.
CAL PDZ FP-1 = human CAL PDZ-peptide interaction inhibition | 330,000 tested, 0.02% active | inhibition, % at 20 µM | AID 504414 | purified CAL PDZ, TMR-peptide fluorescence polarization, 1 h;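 active = highest replicate inhibition of at least 40%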;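 also: plate controls were DMSO neutral control wells for no effect and unlabeled competitor peptide control wells for full effect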
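System: purified tagged CAL PDZ domain construct (CerCALP). Schedule: 1 h incubation at room temperature before polarization reading. Medium: 25 mM sodium phosphate pH 7.4, 150 mM NaCl, TCEP, IgG, Thesit. Read-out: percent inhibition from loss of millipolarization. Measured by: FP readout, S and P plane fluorescence. Probe or stimulus: fluorescent TMR peptide probe.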
dFosB activator = activators of mouse delta FosB homodimer. 340,000 tested, 0.99% active. activation, % at 25 µM. purified delta FosB, TAMRA-CDK5 oligo fluorescence polarization; percent of positive-control signal above neutral wells;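 active = mean activation above about 17%, with every replicate also reaching it, limit read from the data, passing the limit was not always enough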
CDK5 p35 inh = CDK5/p35 (human) kinase inhibition; Q00535+Q15078; Recombinant CDK5/p35, ADP-Glo luminescence, 60 min; inhibition, % at 10 µM; 330,000 tested, 0.01% active; AID 488839;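 active = highest replicate inhibition of at least 50% and at least 75% of replicates reaching 50%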;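 also: plate controls were DMSO neutral control for no effect and GW8510 at 10 µM for full effect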
Yeast UUG start = alters start codon recognition fidelity in yeast | S. cerevisiae UUG-firefly luciferase reporter, luminescence/redox ratio | activity score, % at 18.7 µM | 350,000 compounds, 0.13% hits | AID 602363;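 active = replicate mean at a twofold rise or more, about +100% in these data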;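 note: firefly luciferase made from a UUG start codon reports start codon fidelity; reporter light over untreated wells divided by growth signal over untreated wells; some hits fall short of that in this replicate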
Dyrk1A ADPGlo = inhibitors of rat Dyrk1A kinase; Q63470; ADP-Glo luminescence, NFATc1 peptide; 310,000 tested, 0.43% active; AID 504441; inhibition, % at 12.5 µM; in the data active = inhibition above about 50%;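 also: plate controls were vehicle with enzyme for no effect and no enzyme for full effect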
CAL PDZ FP-2 = inhibitors of human CAL PDZ peptide binding; Q9HD26; purified CAL PDZ, TMR-peptide fluorescence polarization, 1 h; inhibition, % at 24.9 µM; 300,000 tested, 0.92% active; AID 602252;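 active = mean inhibition of at least 30% with at least half of replicates also reaching 30%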;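 also: 0% = DMSO neutral control and 100% = excess unlabeled competitor peptide PRC23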
Numbers without * were called inactive; . = no result.

1: Cc1cccc(C)c1NC(=O)CSc1nnc(-c2ccco2)n1N
2: Nn1c(SCC(=O)Nc2cccc(S(N)(=O)=O)c2)nnc1C1CC1
3: C[C@@H]1CN([C@@H](C)CO)C(=O)c2cc(NC(=O)Nc3cccc4ccccc34)ccc2O[C@H]1CN(C)S(=O)(=O)c1cn(C)cn1
4: COc1ccccc1-n1cc(-c2ccccc2)c2c(=S)nc[nH]c21
5: COc1ccccc1-n1cc(-c2ccccc2)[nH]c1=S
6: O=C(C[C@@H]1C[C@H]2c3cc(NC(=O)c4cccnc4)ccc3O[C@H]2[C@@H](CO)O1)NCc1ccccc1F

| Assay by compound | 1 | 2 | 3 | 4 | 5 | 6 |
| --- | --- | --- | --- | --- | --- | --- |
| CAL PDZ FP-1 | -1.4 | 0.1 | . | -1.0 | -1.5 | . |
| dFosB activator | -3.2 | 4.0 | . | -3.4 | -4.6 | . |
| CDK5 p35 inh | -4.2 | -1.5 | . | 2.1 | 2.2 | . |
| Yeast UUG start | -10.3 | . | 3.4 | -23.0 | . | -18.0 |
| Dyrk1A ADPGlo | 1.1 | 10.8 | . | 4.6 | -1.7 | . |
| CAL PDZ FP-2 | -2.2 | 69.6* | . | 77.0* | -3.8 | . |

7: Cc1cc(C(=O)NCC2COc3ccccc3O2)c2ccccc2n1 (configuration not stated)
8: O=C(COc1ccc(-n2cnnn2)cc1)NC(=O)NCc1ccccc1
9: CO[C@H]1CN(C)C(=O)c2ccc(NS(=O)(=O)c3cccc(F)c3)cc2OC[C@@H](C)N(C(=O)Cc2cccnc2)C[C@H]1C
10: C[C@@H]1CCCCO[C@H](CN(C)C(=O)Cc2ccccc2)[C@H](C)CN([C@@H](C)CO)C(=O)c2cc(NC(=O)Nc3cccc4ccccc34)ccc2O1
11: O=C(CN1CCC(n2nnc3cc(C(F)(F)F)ccc32)CC1)Nc1ccc2c(c1)OCCO2
12: O=C(CN1CCC(n2nnc3cc(C(F)(F)F)ccc32)CC1)Nc1ccc2c(c1)CCC2

| Assay by compound | 7 | 8 | 9 | 10 | 11 | 12 |
| --- | --- | --- | --- | --- | --- | --- |
| CAL PDZ FP-1 | -1.6 | -2.0 | . | . | 0.1 | 0.6 |
| dFosB activator | -1.2 | -12.8 | . | . | -2.4 | -0.4 |
| CDK5 p35 inh | -4.3 | 0.3 | . | . | 0.7 | 0.0 |
| Yeast UUG start | . | -4.8 | 2.1 | -4.7 | -29.8 | -6.8 |
| Dyrk1A ADPGlo | . | -1.0 | . | . | 3.9 | 4.0 |
| CAL PDZ FP-2 | 62.3* | 50.0* | . | . | 48.8* | -1.9 |

13: Cc1nnc(NC(=O)CN2C(=O)NC3(CCCC3)C2=O)s1
14: CCSc1nnc(NC(=O)CN2C(=O)NC3(CCCC3)C2=O)s1
15: CNC(=O)c1cc2cc(OC)ccc2n1CCN(C)C
16: CCN1CCN(c2nc(-c3ccccn3)nc3ccccc23)CC1
17: CCN1CCN(c2ccc(Nc3ccnc4ccccc34)cc2)CC1
18: CN1CCN(c2ccc(Nc3ccnc4cc(Cl)ccc34)cc2)CC1

| Assay by compound | 13 | 14 | 15 | 16 | 17 | 18 |
| --- | --- | --- | --- | --- | --- | --- |
| CAL PDZ FP-1 | 1.0 | 0.4 | . | -2.5 | 2.4 | -1.1 |
| dFosB activator | 0.5 | -5.1 | -5.2 | -7.8 | 36.3* | 56.8* |
| CDK5 p35 inh | 0.4 | -1.4 | -0.4 | -1.0 | 0.6 | 1.0 |
| Yeast UUG start | -9.9 | -3.3 | -5.2 | -21.1 | -11.5 | -26.2 |
| Dyrk1A ADPGlo | -3.3 | 0.1 | -11.1 | -3.3 | . | 1.2 |
| CAL PDZ FP-2 | -4.0 | 78.1* | 47.3* | -0.7 | 0.1 | -7.0 |

Grouped by structure: those above with an aryl methoxy group
4: COc1ccccc1-n1cc(-c2ccccc2)c2c(=S)nc[nH]c21
5: COc1ccccc1-n1cc(-c2ccccc2)[nH]c1=S
15: CNC(=O)c1cc2cc(OC)ccc2n1CCN(C)C

| Assay by compound | 4 | 5 | 15 |
| --- | --- | --- | --- |
| CAL PDZ FP-1 | -1.0 | -1.5 | . |
| dFosB activator | -3.4 | -4.6 | -5.2 |
| CDK5 p35 inh | 2.1 | 2.2 | -0.4 |
| Yeast UUG start | -23.0 | . | -5.2 |
| Dyrk1A ADPGlo | 4.6 | -1.7 | -11.1 |
| CAL PDZ FP-2 | 77.0* | -3.8 | 47.3* |

Continued:
19: COc1ccccc1CC(=O)NCc1nn(-c2ccccc2)nc1C
20: C[C@H]1CN([C@@H](C)CO)C(=O)Cc2cc(NC(=O)NC3CCCCC3)ccc2O[C@@H]1CN(C)C(=O)NC1CCCCC1
21: COc1ccc(CN(C)C[C@@H]2Oc3c(NC(=O)c4cnccn4)cccc3C(=O)N([C@H](C)CO)C[C@H]2C)cc1
22: CC(=O)c1cccc(OCc2cc(C(=O)N3CC4C[C@@H]5CC3C[C@H](C4)C5)no2)c1
23: CC(=O)c1ccc(OCc2cc(C(=O)NCC3CCCCO3)no2)cc1 (configuration not stated)
24: CC(=O)c1ccc(OCc2cc(C(=O)NCCc3ccc(Cl)cc3)no2)cc1

| Assay by compound | 19 | 20 | 21 | 22 | 23 | 24 |
| --- | --- | --- | --- | --- | --- | --- |
| CAL PDZ FP-1 | 1.0 | . | . | -2.2 | -1.1 | 1.6 |
| dFosB activator | 0.9 | . | . | -5.5 | -6.3 | 0.4 |
| CDK5 p35 inh | -0.3 | . | . | . | 1.6 | 0.6 |
| Yeast UUG start | . | 3.2 | -9.5 | 11.4 | . | -2.1 |
| Dyrk1A ADPGlo | . | . | . | . | 1.1 | -2.8 |
| CAL PDZ FP-2 | 64.8* | . | . | -2.3 | -2.7 | 67.8* |

25: CC(=O)c1ccc(OCc2cc(C(=O)N3CC4C[C@@H]5CC3C[C@H](C4)C5)no2)cc1
26: O=C(Nc1cc(S(=O)(=O)Nc2ccccc2Cl)ccc1O)c1sc2cc(Cl)ccc2c1Cl
27: C/C=C/c1ccc2c(c1)O[C@@H](CN(C)C(=O)Nc1ccc(F)cc1)[C@H](C)CN([C@H](C)CO)S2(=O)=O
28: COc1ccc(CN2CCC(n3nccc3NC(=O)C3CC3)CC2)c(OC)c1OC
29: CCOc1ccccc1CN1CCC(n2nccc2NC(=O)C2CCCC2)CC1
30: CCCCc1ncc(CN2CCC(n3nccc3NC(=O)c3ccccc3OC)CC2)[nH]1

| Assay by compound | 25 | 26 | 27 | 28 | 29 | 30 |
| --- | --- | --- | --- | --- | --- | --- |
| CAL PDZ FP-1 | -1.4 | -0.2 | . | 0.2 | 112.1* | 0.0 |
| dFosB activator | -15.1 | 100.8* | . | -7.0 | 3.6 | -3.8 |
| CDK5 p35 inh | 0.1 | -0.1 | . | 0.8 | -1.7 | -0.3 |
| Yeast UUG start | 1.4 | . | -4.4 | -4.3 | -5.9 | -5.9 |
| Dyrk1A ADPGlo | 0.0 | 1.1 | . | -5.6 | 4.4 | -2.5 |
| CAL PDZ FP-2 | 70.1* | 3.5 | . | 71.3* | 5.3 | 111.2* |

31: CN(Cc1nccn1C)C(=O)c1cc(COc2ccc3ncccc3c2)on1
32: Cc1cc(CN(C)C(=O)c2cc(COc3ccc4ncccc4c3)on2)on1
33: CC(=O)c1ccc(OCc2cc(C(=O)N(C)Cc3cc(C)no3)no2)cc1
34: C=C(C)CN(CC)C(=O)CSc1ccc(S(=O)(=O)N2CCN(Cc3ccccc3)CC2)cn1
35: Cc1ccc(C(=O)OCC(=O)NCCN2C(=O)CSC2=O)cc1[N+](=O)[O-]
36: Cc1cc(C(=O)OCC(=O)NCCN2C(=O)CSC2=O)ccc1[N+](=O)[O-]

| Assay by compound | 31 | 32 | 33 | 34 | 35 | 36 |
| --- | --- | --- | --- | --- | --- | --- |
| CAL PDZ FP-1 | 25.0 | -1.9 | -0.5 | -1.3 | -0.6 | 0.2 |
| dFosB activator | -4.7 | -4.2 | 0.5 | -13.9 | -9.9 | 3.8 |
| CDK5 p35 inh | 0.8 | 1.2 | -0.1 | -0.7 | -0.9 | -0.2 |
| Yeast UUG start | . | -16.1 | -8.6 | 6.7 | -12.0 | -8.1 |
| Dyrk1A ADPGlo | 3.6 | -3.2 | 2.2 | -4.1 | . | 4.9 |
| CAL PDZ FP-2 | 41.9* | 76.4* | 1.0 | 69.4* | 3.0 | 89.8* |

37: COc1ccccc1-c1cnc2c(c1)C(=O)N([C@@H](C)CO)C[C@H](C)[C@@H](CN(C)Cc1cncnc1)O2
38: COc1cc([N+](=O)[O-])cc(/C=N/NC(=O)Cn2cncn2)c1O
39: O=C(N[C@H]1CC[C@H](CCn2cc(Cc3ccccc3)nn2)O[C@@H]1CO)c1cnccn1
40: CCC(C)(C)NC(=O)CN(Cc1cccs1)C(=O)CCC(=O)Nc1nccs1
41: CCC(C)(C)NC(=O)CN(Cc1ccco1)C(=O)CCC(=O)Nc1nccs1
42: Cc1ccc(S(=O)(=O)N2CC[C@H]3[C@@H](CO)N(C)c4ccc(C#Cc5cccnc5)cc4[C@H]32)cc1

| Assay by compound | 37 | 38 | 39 | 40 | 41 | 42 |
| --- | --- | --- | --- | --- | --- | --- |
| CAL PDZ FP-1 | . | -0.1 | . | -2.8 | 0.1 | . |
| dFosB activator | . | 3.2 | . | -4.2 | -2.8 | . |
| CDK5 p35 inh | . | -1.7 | . | -0.2 | 1.0 | . |
| Yeast UUG start | 14.4 | -23.0 | -26.3 | -2.0 | -14.7 | -19.9 |
| Dyrk1A ADPGlo | . | 3.9 | . | 0.7 | 3.7 | . |
| CAL PDZ FP-2 | . | 48.3* | . | -0.5 | 64.3* | . |

43: NS(=O)(=O)c1ccc(CNC(=S)NCc2ccc(F)cc2)cc1
44: NS(=O)(=O)c1ccc(CNC(=S)NCc2ccc(Cl)cc2)cc1
45: O=C(Nc1ccccc1)N1C[C@H]2[C@@H](c3ccccc31)[C@H](CO)N2C(=O)c1ccccc1F
46: Cc1ccc(N2C(=O)C3C4CC(=O)C(c5ccccc54)C3C2=O)cc1 (configuration not stated)
47: O=C1CC2c3ccccc3C1C1C(=O)N(Cc3ccccc3)C(=O)C21 (configuration not stated)

| Assay by compound | 43 | 44 | 45 | 46 | 47 |
| --- | --- | --- | --- | --- | --- |
| CAL PDZ FP-1 | -1.0 | -1.5 | . | -1.6 | -0.8 |
| dFosB activator | -2.7 | -9.4 | . | -0.6 | 6.5 |
| CDK5 p35 inh | 1.1 | -0.7 | . | -0.2 | -2.6 |
| Yeast UUG start | -22.0 | -8.0 | -11.4 | -12.7 | . |
| Dyrk1A ADPGlo | -0.2 | 6.0 | . | 1.4 | . |
| CAL PDZ FP-2 | 38.9* | -6.0 | . | 0.7 | 34.9* |
